From patent US11426367B2, “Methods of treating substance abuse” (Perception Neuroscience, Inc., priority 2018, dated 2022)

What was measured:
NMDA receptor = conditions: cited from earlier work
[1] = test system: social defeat stress mice; assay: Golgi staining, spine density in brain regions, social defeat stress model; assay type: in vivo; conditions: 10 mg/kg i.p., 8 days after injection; for spine density of the nucleus accumbens: density increased by stress
Procedure: A social defeat stress model of depression was prepared by bringing C57/B6 male mice into contact with ICR male mice (large aggressive mice) for 10 consecutive days to apply a stress called a “social defeat stress” in accordance with the previous report (Non Patent Literature 19). […] Specifically, an increase in immobility time was found in each of a tail suspension test (TST) and a forced swimming test (FST).
The preparation of the animal model of depression and the administration of the agent were specifically performed as described below (FIG. 3A). Male C57/B6 mice (7-week-old, Japan SLC, Inc., Hamamatsu, Japan) and ICR mice (9-week-old, Japan SLC, Inc., Hamamatsu, Japan) were used. The mice were given free access to water and feed. A social defeat stress was applied by housing one C57/B6 mouse with one ICR mouse for 10 days.
The antidepressant effects of the agent were investigated by behavioral tests such as the TST, the PST, the LMT, and a 1% sucrose preference test (SPT) (FIG. 3A). The 1% sucrose preference test (SPT) was performed on 1 day and 6 days after the injection of ketamine. Each of the TST and the PST was performed on 2 days and 7 days after the injection of ketamine. The TST was performed as described below. First, the mice were taken out from cages, and then a small piece of an adhesive tape was bonded onto a portion approximately 2 cm away from the tip of the tail of the mice. A small hole was opened in the small piece, and the mice were each fixed upside down on a hook through the small hole. The immobility time of each mouse was recorded for 10 minutes. Mice were considered immobile only when they hung passively and completely motionless. The immobility time increases in a depressive state. The PST was performed as described below. First, the mice were placed individually in a cylinder (diameter: 23 cm; height: 31 cm) containing 15 cm of water, maintained at 22 to 24 deg C. The mice were tested in an automated forced-swimming apparatus using SCANET MV-40 (MELQUEST Co., Ltd., Toyama, Japan). The immobility time was calculated as a value obtained by subtracting active time from total time, using the analysis software of the apparatus. Cumulative immobility time was recorded over 6 minutes during a test period. The LMT was performed as described below. First, the mice were placed in experimental cages (length×width×height: 560×560×330 mm). The locomotor activity of the mice was counted with SCANET MV-40, and the cumulative exercise of the mice was recorded for 60 minutes. The cages were cleaned between testing session. The immobility time increases in a depressive state. The SPT was performed by preparing general drinking water and a 1% sucrose solution so that the mice had free access thereto, and measuring the ratio of the amount of the sucrose solution consumed. The consumption of the sucrose solution, which is a reward response, reduces in a depressive state. The mice were decapitated 5 days after the injection of ketamine, and the brain was quickly dissected out and subjected to Golgi staining. A spine density was quantitatively evaluated by observation with a KEYENCE microscope (BZ-9000, Osaka, Japan).

SMILES	potency at the receptor (NMDA), fold less potent than S(+)-ketamine (NMDA receptor)	spine density of the frontal cortex [1]	spine density of the hippocampal dentate gyrus [1]	spine density of the hippocampus CA1 region [1]	spine density of the hippocampus CA3 region [1]	spine density of the striatum [1]	spine density of the nucleus accumbens [1]	affinity for the NMDA receptor, fold greater than R-isomer (NMDA receptor; Non Patent Literature 12)
CN[C@@]1(c2ccccc2Cl)CCCCC1=O.Cl [R(−)-ketamine]	2-4 fold	significantly improved the decreased density of spine	significantly improved the decreased density of spine	no apparent change in spine density	significantly improved	no apparent change in spine density	significantly improved	
CN[C@]1(c2ccccc2Cl)CCCCC1=O [S(+)-ketamine]		significantly improved the decreased density of spine	significantly improved the decreased density of spine	no apparent change in spine density	significantly improved	no apparent change in spine density	significantly improved	approximately 4 fold
